{"sequences": {"note": "The chains behind the UniProt entries cited, without tags or fusion partners.", "UniProt P21554, whole entry": "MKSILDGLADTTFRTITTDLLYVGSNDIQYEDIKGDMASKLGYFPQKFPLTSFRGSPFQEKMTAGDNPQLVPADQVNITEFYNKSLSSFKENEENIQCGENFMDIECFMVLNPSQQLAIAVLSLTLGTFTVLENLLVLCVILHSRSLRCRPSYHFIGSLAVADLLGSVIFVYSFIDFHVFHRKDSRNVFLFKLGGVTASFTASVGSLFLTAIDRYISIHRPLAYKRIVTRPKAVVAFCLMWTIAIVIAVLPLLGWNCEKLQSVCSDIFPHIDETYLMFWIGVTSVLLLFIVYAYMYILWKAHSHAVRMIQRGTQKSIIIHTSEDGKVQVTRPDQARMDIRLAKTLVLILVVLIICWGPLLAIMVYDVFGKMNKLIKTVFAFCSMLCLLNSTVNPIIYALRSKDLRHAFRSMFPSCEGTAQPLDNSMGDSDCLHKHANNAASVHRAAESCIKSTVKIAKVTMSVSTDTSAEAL"}, "source": "paper PMC9585589", "about": "(2022)", "biological_target": "human CB1 receptor (Homo sapiens, UniProt P21554)", "conditions": "read-out: Ki (μM, 95% CI)", "data": [{"substance": "Phillyrin [Compound 17]", "values": [{"measurement": "Ki", "result": 62.8, "unit": "µM"}]}]}
